The target of one experiment is TRPML1 (Homo sapiens, UniProt Q9GZU1). Description: Fluorescent TRPML1 assay (Fluo4-AM calcium fluorescence in doxycycline-induced HEK-293 Trex cells). As to conditions: read-out: Human TRPML1 EC50. The procedure:
(§1) HEK-293 Trex cells were stably transfected with a construct consisting of the human coding sequence for TRPML1 cloned into the […] plasmid pCDNA5 T/O. Mutations were introduced into the TRPML1 sequence to facilitate expression on the cell surface (Silvia Vergarajauregui, Rosa Puertollano, Traffic. 2006 March; 7(3): 337-353). Briefly, the cells are cultured in 150 mm round tissue culture dishes containing 20 mL of media. The day before the assay the cells are rinsed with DPBS-Ca—Mg and then treated briefly with Trypsin-EDTA. The Trypsin-EDTA is diluted with growth media, and cells are counted. […]
(§2) 50 microliters of dye-loaded cells are dispensed into each well of the compound assay plate created above. The fluorescence in each well is then determined with an excitation wavelength of 480 nm and an emission wavelength of 540 nm using either a Molecular Devices SpectraMax multimode plate reader or a Hamamatsu FDSS/uCell plate imager.
The resulting fluorescence for each well is exported as an ascii file and loaded into our LIMS for analysis. The percent activity of each compound at each concentration is determined by comparison to the positive and negative control wells included in each plate.
(§3) EC50 values were calculated using a non-linear regression of Prism. […]

The chains behind the UniProt entries cited, without tags or fusion partners.
UniProt Q9GZU1, whole entry L15A/L16A/L577A/L578A: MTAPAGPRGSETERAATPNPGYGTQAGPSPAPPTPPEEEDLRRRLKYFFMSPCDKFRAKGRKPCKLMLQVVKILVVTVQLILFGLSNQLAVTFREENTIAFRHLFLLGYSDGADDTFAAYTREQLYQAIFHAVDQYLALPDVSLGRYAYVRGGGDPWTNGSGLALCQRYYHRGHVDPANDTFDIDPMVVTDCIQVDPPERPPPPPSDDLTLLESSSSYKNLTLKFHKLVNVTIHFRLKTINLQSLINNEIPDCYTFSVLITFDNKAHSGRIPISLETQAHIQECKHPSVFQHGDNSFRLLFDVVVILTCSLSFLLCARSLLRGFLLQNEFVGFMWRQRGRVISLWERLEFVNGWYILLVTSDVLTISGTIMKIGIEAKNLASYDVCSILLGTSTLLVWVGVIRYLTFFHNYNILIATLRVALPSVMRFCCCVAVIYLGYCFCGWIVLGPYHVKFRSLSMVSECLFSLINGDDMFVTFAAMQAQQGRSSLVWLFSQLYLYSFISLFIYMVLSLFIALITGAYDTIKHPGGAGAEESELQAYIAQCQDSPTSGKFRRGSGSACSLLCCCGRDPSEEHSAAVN
UniProt Q8IZK6, whole entry: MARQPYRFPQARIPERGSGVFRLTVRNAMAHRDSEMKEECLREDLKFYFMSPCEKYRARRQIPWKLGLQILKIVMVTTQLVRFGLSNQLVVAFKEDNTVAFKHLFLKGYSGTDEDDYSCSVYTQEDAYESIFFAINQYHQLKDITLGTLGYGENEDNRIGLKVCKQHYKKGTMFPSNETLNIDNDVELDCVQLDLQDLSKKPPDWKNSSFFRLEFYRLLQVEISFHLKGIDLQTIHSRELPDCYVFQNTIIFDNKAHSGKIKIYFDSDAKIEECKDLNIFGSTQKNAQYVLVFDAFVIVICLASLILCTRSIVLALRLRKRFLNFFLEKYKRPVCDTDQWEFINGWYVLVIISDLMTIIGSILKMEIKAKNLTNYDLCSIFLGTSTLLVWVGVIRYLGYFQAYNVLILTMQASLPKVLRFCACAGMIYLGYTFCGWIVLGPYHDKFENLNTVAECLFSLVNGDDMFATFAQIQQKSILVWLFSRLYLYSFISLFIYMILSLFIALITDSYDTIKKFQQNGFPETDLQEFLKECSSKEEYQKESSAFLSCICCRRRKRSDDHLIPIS
UniProt Q8TDD5, whole entry: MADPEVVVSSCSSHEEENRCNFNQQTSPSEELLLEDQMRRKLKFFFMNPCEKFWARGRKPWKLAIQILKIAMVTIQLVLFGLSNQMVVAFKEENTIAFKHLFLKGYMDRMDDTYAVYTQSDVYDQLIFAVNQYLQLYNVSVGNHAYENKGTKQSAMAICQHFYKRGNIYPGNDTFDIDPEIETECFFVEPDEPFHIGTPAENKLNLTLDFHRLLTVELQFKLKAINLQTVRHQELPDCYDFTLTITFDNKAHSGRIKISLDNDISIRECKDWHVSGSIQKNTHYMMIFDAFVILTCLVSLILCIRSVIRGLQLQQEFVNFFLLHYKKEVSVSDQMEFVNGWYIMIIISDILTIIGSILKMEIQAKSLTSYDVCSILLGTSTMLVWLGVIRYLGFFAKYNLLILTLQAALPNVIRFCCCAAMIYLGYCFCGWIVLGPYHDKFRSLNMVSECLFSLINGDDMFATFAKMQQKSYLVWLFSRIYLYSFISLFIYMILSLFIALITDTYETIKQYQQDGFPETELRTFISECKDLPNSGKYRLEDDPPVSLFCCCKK

The target of a further experiment is TRPML2 (Homo sapiens, UniProt Q8IZK6). As to the kind of experiment: Fluorescent TRPML2 assay (performed as for TRPML1, substituting the TRPML2 subtype). The following applies: read-out: Human TRPML2 EC50, fluorescent calcium assay. The procedure: as §1, §2
(§4) The resulting fluorescence for each well is exported as an ascii file and loaded into our LIMS for analysis. The percent activity of each compound at each concentration is determined by comparison to the positive and negative control wells included in each plate. […]
as §3

A further experiment deals with TRPML3 (Homo sapiens, UniProt Q8TDD5). As to the kind of experiment: Fluorescent TRPML3 assay (performed as for TRPML1, substituting the TRPML3 subtype). As to conditions: read-out: Human TRPML3 EC50, fluorescent calcium assay. On the procedure:
as §1, §2, §4, §3

The source of these data is US20250136606A1, “MODULATORS OF TRPML, THEIR COMPOSITIONS AND METHODS OF USE” (Caraway Therapeutics, Inc., priority 2021, published 2025).

Regarding `C=CCOC(=O)N(CCOC)c1cn(-c2cc(Cl)ccn2)c2ncnc(N3CCN(C(=O)OC(C)(C)C)C[C@@H]3C)c12`, the EC50 (as a rule, the concentration that produces a half-maximal response) on TRPML1 is below 0.1 µM; at TRPML2 it was 0.5 to 2 µM; on TRPML3, below 0.1 µM.
